The entries are a selection whose mix differs from that of the whole data set. Inconclusive results are not listed. Active and inactive are the calls of the source. Calls follow the shape of the dose curve; as a rule, active = well fitted cell-killing curve with a large enough effect; inconclusive = small, poorly fitted or top-dose-only effect, or effect the other way; inactive = flat fitted curve, though single readings scatter.
Assay: GF-AFC viability counterscreen for inhibitors of alpha-synuclein gene (SNCA) expression;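 also: 0% = DMSO-treated cells and -100% = medium-only wells without cells; nearly all actives have a fitted effect of over 30% in size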
Conditions: HEK-293-SNCA-luc viability, GF-AFC fluorescence, 24 h
From the text: Assay Submitter (PI): Daniel R. Scoles Ph.D.
Department of Neurology, University of Utah, Salt Lake City, Utah
Accumulation of alpha-synuclein is a main underlying pathological feature of Parkinson's disease (PD) and alpha-synucleinopathies, for which lowering expression of the alpha-synuclein gene (SNCA) is a potential therapeutic avenue. Using a cell-based luciferase reporter of SNCA expression we performed a quantitative high throughput screen (qHTS) of 155,885 compounds in dose response. The screening assay was generated using genome editing to insert the luciferase gene downstream and in frame of the SNCA gene in HEK-293 cells (1). A viability counterscreen using GF-AFC was used to eliminate cytotoxic and false positive compounds. After in silico analysis (clustering, removal of frequent hitter nuisance chemotypes), inhibitor compounds from the primary screen were selected for follow up and re-tested at 11-doses in the SNCA-luc cells (luciferase and GF-AFC confirmation), and in CMV-luc expressing cell line to flag general transcriptional repressors.
Described herein are the results of the GF-AFC viability counterscreen for SNCA inhibitors; inactivity (no decrease in fluorescence signal, not cytotoxic) is the desired output for this assay.
1. Dansithong, W., Paul, S., Scoles, D. R., Pulst, S. M., and Huynh, D. P. (2015) Generation of SNCA Cell Models Using Zinc Finger Nuclease (ZFN) Technology for Efficient High-Throughput Drug Screening. PLoS ONE 10, e0136930.
SEQUENCE No. (e.g., 1, 2, 3, etc.); […] (e.g., Cells, Incubation, Reagent, etc.); VALUE; DESCRIPTION
1; Cells; 4 uL; Dispense 1500 HEK-293-SNCA-luc cells/well into Greiner 1536-well white / solid bottom tissue culture treated plate. The plate was covered with metal lids with gas-exchange holes.
2; Incubate; 24 hours; Incubate at 37C, 5% CO2, 95% RH.
3; Compounds; 23 nL; Compounds and controls were transferred via a Kalypsys Pin Tool (Wako USA) equipped with a 1536-slotted pin array. The plate was covered with metal lids with gas-exchange holes.
4; Incubate; 24 hours; Incubate at 37C, 5% CO2, 95% RH.
5; Dispense; 1 uL; Dispense Gly-Phe-7-amino-4-trifluoromethylcoumarin (GF-AFC, prepared at 125 uM in PBS) was added. The plate was covered with metal lids with gas-exchange holes.
6; Incubate; 30 min; Incubate at 37C, 5% CO2.
7; Detector; Fluorescence; Measure fluorescence with ViewLux microplate reader (PerkinElmer) equipped with 405/10 excitation and 540/25 emission filters.
8; Dispense; 3 uL; Dispense ONE-Glo ([…]) lucifase detection reagent was added to each well. […]
10; Detector; Luminescence; Measure luminescence with ViewLux microplate reader (PerkinElmer) equipped with clear filters. […]
10; Signals were analyzed, and dose-response curves were fit using the Hill equation. […]

Row | SMILES | activity change, negative = cytotoxicity (at 57.1 µM (top of the series)) | activity change, negative = cytotoxicity (at 23.9 µM (top of the series))
1 | CCC(=O)N(c1ccccc1)C1(COC)CCN(CCn2nnn(CC)c2=O)CC1 | inactive: 82.1% | 
2 | CCC(=O)N(c1ccccc1)C1(COC)CCN(CCc2cccs2)CC1 | inactive: 35.5% | 
3 | CN(CCCl)CCCl | inactive: -7.43% | inactive: 40.8%

Source: PubChem BioAssay AID1671193 (National Center for Advancing Translational Sciences (NCATS), 2021)
